Values quoted from earlier work, collected in publication PMC11998001, “Towards P2X4 Positron Emission Tomography Tracing” (Journal of Medicinal Chemistry, 2025).

System: hP2X4R
Conditions: representative P2X4 antagonists, Figure 2

For Cc1ccc(S(=O)(=O)N2c3ccccc3Oc3ccccc32)cc1 [PSB-12062], which IC50 is on record?
The IC50 was 1400 nM.
